In patent US11191910B2, “Medical unit dose container” (dated 2021):
Marks after values point to notes of the source that are not given here.

What was measured:
[1] = Nasal cavity deposition of dry powder 2-PAM with coomassie blue in rats (POD device); conditions: rat
[2] = Tissue distribution (plasma and brain) of 2-PAM in rats after POD or intravenous administration; conditions: rat

Substance: 2-pyridine aldoxime methyl chloride
- Dye localization in the nasal cavity after POD administration ([1]; dry powder 2-PAM 2.5 mg with 0.1% coomassie blue, <5 minutes after dosing): deposited primarily within this olfactory region
- Drug found in the trachea or esophagus after POD administration ([1]; dry powder 2-PAM with coomassie blue): none
- Brain concentrations, powder POD compared to aqueous 2-PAM POD ([2]; 5 and 15 minutes after administration): significantly higher
- Brain concentration after POD compared to IV administration ([2]; 5 minutes after administration): 3.5 ×
- Brain-to-plasma ratio ([2]; IV 2-PAM, 2.5 mg, 5 min): 8.7
- Brain-to-plasma ratio ([2]; IV 2-PAM, 2.5 mg, 15 min): 13.1
- Brain-to-plasma ratio ([2]; IV 2-PAM, 2.5 mg, 30 min): 16.8
- Brain-to-plasma ratio ([2]; IV 2-PAM, 2.5 mg, 60 min): 11.7
- Brain-to-plasma ratio ([2]; IV 2-PAM, 2.5 mg, 120 min): 6.7
- Brain 2-PAM concentration ([2]; IV, 2.5 mg, 5 min): 11.9 ng/g tissue
- Plasma 2-PAM concentration ([2]; IV, 2.5 mg, 5 min): 1.42* ng/g tissue
- Brain 2-PAM concentration ([2]; IV, 2.5 mg, 15 min): 9.0 ng/g tissue
- Plasma 2-PAM concentration ([2]; IV, 2.5 mg, 15 min): 0.73* ng/g tissue
- Direct transport percentage (% DTP) to the brain ([2]; aqueous 2-PAM via POD vs IV): 80.9%
- Brain-to-plasma ratio ([2]; aqueous 2-PAM via POD, 2.5 mg, 5 min): 133
- Brain-to-plasma ratio ([2]; aqueous 2-PAM via POD, 2.5 mg, 15 min): 58.5
- Brain-to-plasma ratio ([2]; aqueous 2-PAM via POD, 2.5 mg, 30 min): 41.1
- Brain-to-plasma ratio ([2]; aqueous 2-PAM via POD, 2.5 mg, 60 min): 61.4
- Brain-to-plasma ratio ([2]; aqueous 2-PAM via POD, 2.5 mg, 120 min): 127
- Brain 2-PAM concentration ([2]; aqueous POD, 2.5 mg, 5 min): 41.6 ng/g tissue
- Plasma 2-PAM concentration ([2]; aqueous POD, 2.5 mg, 5 min): 0.44 ng/g tissue
- Plasma 2-PAM concentration ([2]; aqueous POD, 2.5 mg, 15 min): 0.33 ng/g tissue
- Total brain concentration AUC after POD compared to IV ([2]; aqueous formulation, 2.5 mg): significantly greater
- Total plasma AUC after POD compared to IV administration ([2]; aqueous formulation, 2.5 mg): significantly lower
- Brain 2-PAM concentration ([2]; powder POD, 5 min): 106.19* ng/g tissue
- Plasma 2-PAM concentration ([2]; powder POD, 5 min): 0.46 ng/g tissue
- Brain 2-PAM concentration ([2]; powder POD, 15 min): 293.32 ng/g tissue
- Plasma 2-PAM concentration ([2]; powder POD, 15 min): 0.38 ng/g tissue
